## Apparent affinities of Ab-14 variants for a coronavirus HR2 peptide

Data: MIT Lincoln Laboratory AlphaSeq set, Li et al. 2023, doi:10.1038/s41467-023-39022-2, as distributed in FLAb.

Antigen: PDVDLGDISGINAS, a 14-residue peptide of the SARS-CoV-2 spike HR2 region.

Parent: Ab-14, a human scFv built as VH, the linker GGGGSGGGGSGGGGS, VL. Only the CDRs of the light chain vary.
VH: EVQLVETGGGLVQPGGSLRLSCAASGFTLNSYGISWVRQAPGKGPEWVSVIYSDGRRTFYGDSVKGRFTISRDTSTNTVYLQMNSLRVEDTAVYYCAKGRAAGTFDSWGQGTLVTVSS
VL: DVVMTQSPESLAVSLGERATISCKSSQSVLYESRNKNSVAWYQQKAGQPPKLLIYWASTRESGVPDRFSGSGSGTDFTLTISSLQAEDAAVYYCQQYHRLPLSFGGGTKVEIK

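The variants were designed computationally from a first round of random CDR variants and then made and measured. Several design methods are mixed in this list. The scFvs were displayed on barcoded MATa yeast, the peptide on MATalpha yeast. Pairs that bind mate more often; barcode pairs of the diploids are counted by sequencing. Scores were corrected for input abundance and mapped to Kd with protein pairs of known affinity run in the same pool. Each pool was mated in six replicate cultures.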

The parent's light chain CDRs are KSSQSVLYESRNKNSVA, WASTRES, QQYHRLPLS; each variant's own CDRs replace them letter for letter. Variants here have more than six changes. Scale: log10 of Kd in nM, estimated from mating counts; low values are strong binders. A mean of the replicates is given; it leaves out those without a signal. Where no diploid with the target was found in any replicate, the entry reads "nd": below detection, most likely a poor binder, though not proof of it. Entries are sorted by rising average, undetected variants last. Three control strains display no target. For all light chain designs, 4% of the pairings with them gave a signal, with a median of 2.64 and one signal in twenty below 1.59, so weak values seen in few replicates may be background. The authors averaged sequences with at least three values out of six and counted those with two or fewer as poor binders. The parent sequence was in this pool as ten entries: three were never detected, three once, and four in most replicates, with averages from 0.34 to 2.37. A sequence measured in both rounds can read differently, since the two assays cover different ranges.

* KLSMSHGYESRMKNSVA, EASQREE, QQYHRLPLS -> -0.27 (6 of 6 replicates)
* VIKNMMNTMGTQHQNIA, NGAIKAD, QQYQRLPLW -> -0.21 (6 of 6 replicates)
* KMAQSNPYESRNSNSVA, NASYREM, QQYHRLPLS -> 0.00 (6 of 6 replicates)
* KISCSEYYGDRNKMSVA, DASQRES, QQYHRLPLS -> 0.06 (6 of 6 replicates)
* KLSGIMRMESKNKSNIA, EVNERSE, QQYDRLPLS -> 0.08 (6 of 6 replicates)
* KFSQQMLYESRNSNNVA, HASHRES, QQYHRLPLS -> 0.10 (6 of 6 replicates)
* KIGDVLNELMHKKNNVA, DLVTREN, QQYFRLPLS -> 0.14 (6 of 6 replicates)
* SIYDATRMESRNKNPIA, DVSNRPS, QQYDRLPLS -> 0.14 (6 of 6 replicates)
* KLLQNVMTEGKNRNNVA, HMTMREQ, QQYWRLPLS -> 0.17 (6 of 6 replicates)
* KLQQWHLYESRMKNSVA, HASQRES, QCYHRLPLS -> 0.17 (6 of 6 replicates)
* KMSMSWPYDSLNKNSVA, NASTRMQ, QQYHRLPLS -> 0.34 (6 of 6 replicates)
* NFSGSDQYQMQEQGNVA, QTEQKAN, QQYFRLPLT -> 0.37 (6 of 6 replicates)
* TITGEQSMSTQGNWNIA, QAEQKVH, QQYDRLPLA -> 0.59 (5 of 6 replicates)
* MFSQSVMYGSLYRNSVA, QTSTRES, QQYDRLPLS -> 0.66 (6 of 6 replicates)
* KLQQSEEYESRQFNSVA, EASTRNL, QQYHRLPLS -> 0.68 (6 of 6 replicates)
* IVSQLMLWGYHHKNSIA, EAQTRLN, QQYDRLPLI -> 0.98 (6 of 6 replicates)
* KMSPSELYQDRNFNAVA, QASQRES, QQYHRLPLS -> 1.01 (6 of 6 replicates)
* KLQQFYEGESRNKNSVA, HASTRRS, QQYHRLPLS -> 1.01 (6 of 6 replicates)
* SLYEMNYELSGKTHSVA, DNSTRGD, QQYFRLPLD -> 1.21 (6 of 6 replicates)
* TIMQMTSSFSQNINNVA, EVSTREK, QQYDRLPLS -> 1.25 (6 of 6 replicates)
* TIAQSMLYLSNLKNSIA, QAETRED, QQYHRLPIS -> 1.26 (6 of 6 replicates)
* MIQQGENRDQEHYNSIA, EGHERPI, QQYYTLPLV -> 1.27 (6 of 6 replicates)
* KLMGSVLYESRWKNAVA, GASQRES, QQYHRLPLS -> 1.29 (6 of 6 replicates)
* KLESLMGESYAEKENIA, EGEQRFS, QQYHRLPLH -> 1.30 (6 of 6 replicates)
* TISMSMNWLTRNKNSIA, EESTRDD, QQYDRLPLS -> 1.40 (6 of 6 replicates)
* KLRMLTVTGGYFKNSVA, QAETREN, QSYHRLPLA -> 1.52 (5 of 6 replicates)
* QFDLFMNEQGMQNAAIA, GATNRHT, QQYQKLPLS -> 1.55 (6 of 6 replicates)
* MISQLYNMGQFAINSVA, QASQRCE, QQYDRLPLL -> 1.63 (6 of 6 replicates)
* QLYEMLYELSGKTHSVA, DNSTRGD, QQYFRLPLE -> 1.63 (4 of 6 replicates)
* KVSQSVLMMTRNKNSVA, DNSTSGS, QQYHRLPLS -> 1.68 (6 of 6 replicates)
* MVTQMAMTGMMSKRSVA, NASTREH, QQYHRLPLI -> 1.72 (6 of 6 replicates)
* MISQLSNMGQFAINSVA, QMSVRNE, QQYDRLPLA -> 1.77 (6 of 6 replicates)
* MIEEGNAGEIKNSSNIA, SQDQKED, QQYQRLPLI -> 1.83 (6 of 6 replicates)
* HMSMLTLGGMRTRNSVA, QMTTREN, QQYDRLPLS -> 1.93 (6 of 6 replicates)
* KISYQYRFEQLAKNNIA, EVVTRLK, QQYHRLPLS -> 1.94 (6 of 6 replicates)
* KVSEFMKGLTMRTDSIA, DNNTRNS, QQYDRLPLS -> 2.07 (6 of 6 replicates)
* KLDSHEQHGTAQNSAMA, SATVSTQ, QQYSRLPLS -> 2.09 (5 of 6 replicates)
* HVSESIFAQSKMRNSVA, ENNTRES, QQYDRLPLS -> 2.27 (2 of 6 replicates)
* TITAFMDNLSQNRNNVA, DTSTLGS, QSYDRLPLS -> 2.41 (6 of 6 replicates)
* KLLQTVMNGRHNRNNVA, HMTMRED, QQYFRLPLS -> 2.47 (4 of 6 replicates)
* KIMQSLNYEQFNVSSVA, GQETRER, QSYHRLPLS -> 2.49 (5 of 6 replicates)
* IISGVMLMESKHKNSVA, NAETREY, QHYDRLPLS -> 2.53 (6 of 6 replicates)
* TISMSMNWLTFNKNSIA, EESTRED, QQYDRLPLS -> 2.55 (1 of 6 replicates)
* MLDNCQDEYYQKNNNVA, EMNARCY, QQYGRLPLM -> 2.57 (4 of 6 replicates)
* MLSEVLHMLGVAKNSIA, DLVLRAN, QQYARLPLM -> 4.01 (1 of 6 replicates)
* KCSQSVLFEDRYKNSVA, QASQRES, QQYHRLRLS -> nd (0 of 6 replicates)
* MISQLYNMGTFAINSVA, QASQRNA, QQYDRLPLI -> nd (0 of 6 replicates)

The opening 5 entries, copied out:

- KLSMSHGYESRMKNSVA, EASQREE, QQYHRLPLS -> -0.27 (6 of 6 replicates)
- VIKNMMNTMGTQHQNIA, NGAIKAD, QQYQRLPLW -> -0.21 (6 of 6 replicates)
- KMAQSNPYESRNSNSVA, NASYREM, QQYHRLPLS -> 0.00 (6 of 6 replicates)
- KISCSEYYGDRNKMSVA, DASQRES, QQYHRLPLS -> 0.06 (6 of 6 replicates)
- KLSGIMRMESKNKSNIA, EVNERSE, QQYDRLPLS -> 0.08 (6 of 6 replicates)